Experimental data reported in US12351648B2, “Methods of inhibiting MASP-2 for the treatment and/or prevention of coronavirus-induced acute respiratory distress syndrome” (priority 2020, dated 2025).
Where two headings read alike, the source gives them in different places.

Protein sequences, listed by entry. Tags and fused reporters are not part of them. Residues count along the entry.
UniProt O00187, 287-686: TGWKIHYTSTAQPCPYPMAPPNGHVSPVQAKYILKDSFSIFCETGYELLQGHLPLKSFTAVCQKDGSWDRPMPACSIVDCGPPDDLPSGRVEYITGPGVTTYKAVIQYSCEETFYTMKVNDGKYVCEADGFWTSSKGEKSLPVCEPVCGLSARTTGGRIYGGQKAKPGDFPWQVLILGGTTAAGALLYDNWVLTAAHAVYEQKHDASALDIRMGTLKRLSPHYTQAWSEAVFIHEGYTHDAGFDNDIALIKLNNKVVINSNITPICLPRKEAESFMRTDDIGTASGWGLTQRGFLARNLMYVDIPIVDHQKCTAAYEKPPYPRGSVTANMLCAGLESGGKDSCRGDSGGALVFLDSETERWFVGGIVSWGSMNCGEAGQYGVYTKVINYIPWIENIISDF

Molecular target: MASP-2 (CCP1-CCP2-SP) (Homo sapiens (Human), UniProt O00187)
Assay: Enzymatic assay for MASP-2 (fluorogenic substrate)
Format: biochemical

Row | Structure (SMILES) | Ki (read-out: MASP-2 Ki) [µM] | Ki (MASP-2 Ki (μM)) [µM]
1 | Cc1nc(N)ccc1CNC(=O)[C@H](C)NC(=O)[C@H]1C[C@H](c2cccc(-c3ccccc3)c2)CN1 [Compound 1360] | < 0.5 | –
2 | Cc1nc(N)ccc1CNC(=O)[C@@H](C)NC(=O)[C@H]1C[C@H](c2cccc(-c3ccccc3)c2)CN1 [Compound 1359] | – | 0.5 to 2.5
